Where two headings read alike, the source gives them in different places.
Test system: Soybean crop
Settings: Metribuzin 840 g ai/ha alone, soil spray

Compound: CSc1nnc(C(C)(C)C)c(=O)n1N [Metribuzin, 4-amino-6-tert-butyl-4,5-dihydro-3-methylthio-1,2,4-triazin-5-one]
- % Phytotoxicity 14 DAA (Table 1 treatment set): 51.3%
- % Phytotoxicity 14 DAA (Table 2 treatment set): 48.8%
- % Phytotoxicity 28 DAA (Table 1 treatment set): 76.3%
- % Phytotoxicity 28 DAA (Table 2 treatment set): 68.8%
- % Phytotoxicity 35 DAA (35 DAA, Table 2 treatment set): 72.5%

From US20230363382A1, “COMBINATIONS OF TRIAZINONE HERBICIDES WITH SAFENERS” (priority 2020, published 2023)
